Membrane permeability of cyclic peptides

Collected by the curators of CycPeptMPDB (Li et al. 2023) from Lee et al. 2018, doi:10.1002/pep2.24063.

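Lipid, pH, incubation time, direction and concentration are not recorded in the data file. The list need not hold all peptides of the study. Peptides that the database sets to -10, its floor, are left out.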

PAMPA measures passive passage through an artificial lipid membrane.
P is given in units of 10^-6 cm/s (from log10 values with two decimals); larger means faster passage.

- CN1C(=O)[C@H](CO)NC(=O)[C@H](CC(N)=O)NC(=O)[C@H](CCCCN)NC(=O)[C@H](Cc2ccccc2)NC(=O)[C@@H]1Cc1ccc(O)cc1: PAMPA 5.2 × 10^-6 cm/s
- CN1C(=O)[C@H](Cc2ccc(O)cc2)NC(=O)[C@H](CO)NC(=O)[C@H](CC(N)=O)NC(=O)[C@H](CCCCN)NC(=O)[C@@H]1Cc1ccccc1: PAMPA 5.1 × 10^-6 cm/s
- CN1C(=O)[C@H](CCCCN)NC(=O)[C@H](Cc2ccccc2)NC(=O)[C@H](Cc2ccc(O)cc2)NC(=O)[C@H](CO)NC(=O)[C@@H]1CC(N)=O: PAMPA 5.4 × 10^-6 cm/s
- CN1C(=O)[C@H](Cc2ccccc2)NC(=O)[C@H](Cc2ccc(O)cc2)NC(=O)[C@H](CO)NC(=O)[C@H](CC(N)=O)NC(=O)[C@@H]1CCCCN: PAMPA 6 × 10^-6 cm/s
- CN1C(=O)[C@H](CC(N)=O)NC(=O)[C@H](CCCCN)NC(=O)[C@H](Cc2ccccc2)NC(=O)[C@H](Cc2ccc(O)cc2)NC(=O)[C@@H]1CO: PAMPA 4.8 × 10^-6 cm/s